From patent publication US20230322767A1, “ARYL SUBSTITUTED PYRROLO-PYRIDINONES AND THERAPEUTIC USES THEREOF” (Bayer Aktiengesellschaft, priority 2020, published 2023)

Protein sequences, listed by entry. Tags and fused reporters are not part of them.
UniProt P48729, whole entry: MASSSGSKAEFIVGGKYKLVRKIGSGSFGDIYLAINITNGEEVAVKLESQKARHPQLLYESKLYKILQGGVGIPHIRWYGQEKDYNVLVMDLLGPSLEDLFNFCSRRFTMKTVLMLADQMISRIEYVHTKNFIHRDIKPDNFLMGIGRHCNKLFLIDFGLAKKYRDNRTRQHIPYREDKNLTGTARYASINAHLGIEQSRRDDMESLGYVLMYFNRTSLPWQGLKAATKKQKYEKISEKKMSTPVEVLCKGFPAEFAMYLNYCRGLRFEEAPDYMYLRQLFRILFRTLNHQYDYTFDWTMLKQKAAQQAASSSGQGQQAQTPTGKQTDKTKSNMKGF

Molecular target: CSNK1A1 (Homo sapiens (Human), UniProt P48729)
Experiment: CSNK1A1 Assay 2 (ADP-Glo, 1 μM ATP)
Details: read-out: CSNK1A1 Assay 2 IC50 [mol/l] (median), comparison compounds of WO 2016/120196

- IC50: 4.51 nM
SMILES: CN1CCc2[nH]c(-c3ccnc(NC(=O)C4CC4)c3)c(Nc3ccccc3)c2C1=O
